## Binding of CDR-mutated scFvs to a peptide of the spike HR2 region

The measurements come from Engelhart et al. 2022 (doi:10.1038/s41597-022-01779-4) through the FLAb antibody collection.

All variants were tested on one target, the spike HR2 peptide PDVDLGDISGINAS (SARS-CoV-2).

Each scFv is VL, a (GGGGS)3 linker, VH, as in the parent Ab-91, and differs from it in the CDRs of the heavy chain only.
VL: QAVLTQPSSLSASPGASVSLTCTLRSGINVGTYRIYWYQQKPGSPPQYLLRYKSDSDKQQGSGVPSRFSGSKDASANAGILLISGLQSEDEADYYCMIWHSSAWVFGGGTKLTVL
VH: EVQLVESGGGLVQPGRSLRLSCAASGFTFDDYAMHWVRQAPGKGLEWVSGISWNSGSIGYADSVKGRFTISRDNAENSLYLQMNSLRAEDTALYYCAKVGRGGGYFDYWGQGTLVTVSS

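The starting antibody came from a phage panning campaign against this peptide. Variants in AAYL51 differ from the parent at up to three CDR positions; double and triple changes were sampled at random. AlphaSeq pools MATa yeast showing the antibodies with MATalpha yeast showing the peptide. After mating in shaken culture at 30 °C for 16 h, diploids were selected and their barcode pairs sequenced. The ratio of observed to expected reads was calibrated, replicate by replicate, on BCL2-family standards whose Kd was known from biolayer interferometry. Mating was done three times.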

Each variant is given by its three heavy chain CDRs, as the data file delimits them; those of the parent are GFTFDDYAMH, GISWNSGSIGYADSVK, VGRGGGYFDY.
All variants listed here change G50 of the VH, counted from its first residue.
Values are log10 of the apparent Kd in nM; lower means stronger binding.
"nd" means that the variant was in the library but no mating with the target was seen in that replicate; the authors take this as a sign of poor binding, and no number exists.

The variant GFTFDDYAMH / LISWNSDSIGDADSVK / VGRGGGYFDY gave nd, nd, nd.
The variant GFTFDDYAMR / MISWNGGSIGYADSVK / VGRGGGYFDY gave nd, 5.23, nd.
The variant WFTFDDYAMH / PISWNSGSIGYADSVK / VGRGGGYSDY gave nd, 4.30, nd.
The variant GFTFDDYAMH / KISWNSGSIGYADYVK / VGRGGGYFDN gave nd, nd, nd.
The variant GFTFDDYAMH / MIIWNSGSIGYADSYK / VGRGGGYFDY gave nd, nd, nd.
The variant GFTFDDYAMH / MISWFSGSIGYADSVK / VGRGPGYFDY gave 6.39, 5.12, 4.37.
The variant GFTPDEYAMH / SISWNSGSIGYADSVK / VGRGGGYFDY gave nd, nd, nd.
The variant GFTFDDVAMH / YISWNSGSIGYADCVK / VGRGGGYFDY gave 5.14, 4.28, nd.
The variant GFTFDDYAMH / PISWNSGSIGYADSVA / VGRGGGYYDY gave 4.41, nd, nd.
The variant GFTFTDYAMH / FISWNSGTIGYADSVK / VGRGGGYFDY gave 6.24, 5.21, 4.53.
The variant GFTFDDYAMH / MISWNSGSIGYADSVK / IGRGGGYFDY gave 5.65, nd, 4.01.
The variant GFTFDDYCMH / DISWNSGSIYYADSVK / VGRGGGYFDY gave 4.67, 5.00, 5.18.
The variant GFTFDDYAMH / VISWNSGSIGYADSVK / VDRGGGYSDY gave nd, nd, nd.
The variant GFTFDDYAMH / TISWNSGGIGYYDSVK / VGRGGGYFDY gave nd, nd, nd.
The variant GFTFDDYAMH / HISWNSGSIGNADSVK / VGRNGGYFDY gave nd, 3.45, nd.
The variant GFTFDDYAWH / AISWNSGSIGYADSVK / VGRGHGYFDY gave nd, 2.54, nd.
The variant GFRFDDYAMH / FISWNSGSIAYADSVK / VGRGGGYFDY gave nd, 5.79, nd.
The variant QNTFDDYAMH / DISWNSGSIGYADSVK / VGRGGGYFDY gave nd, nd, nd.
The variant GFTFDRYAMH / IISWNSGSIGYADSVK / VGRMGGYFDY gave nd, nd, nd.
The variant GFTFDDYAMH / NISWNSGSIGYADSTL / VGRGGGYFDY gave nd, nd, nd.
The variant GDTFDDYAQH / TISWNSGSIGYADSVK / VGRGGGYFDY gave nd, nd, nd.
The variant GFTIDDYAMH / NISWNSGSIGFADSVK / VGRGGGYFDY gave nd, nd, 4.22.
The variant GFTFDQYAMH / LISNNSGSIGYADSVK / VGRGGGYFDY gave 3.50, nd, nd.
The variant GFTFDDYAMH / LISWNSGSIGYADSVK / VGRGDGGFDY gave nd, nd, nd.
The variant GFTFDDYAMH / NISWNSGSIGYADSVK / VGRGGGYFDY gave 6.20, 4.80, 4.68.
The variant GFTFDDYAMH / SIIWNSGSIKYADSVK / VGRGGGYFDY gave nd, 3.34, nd.
The variant GFTFDDYCMH / VISWNSGSIGYADSVK / VGRGGGYFCY gave nd, nd, nd.
The variant GFTFDDYAMH / CISWNSGSIGYADSHK / VGRGGGYFDY gave 5.42, 4.00, 5.73.
The variant GFTFDDYAIH / MISWNSGSIGYADSVK / VGRGQGYFDY gave 4.77, 4.40, 4.39.
The variant GFTFDDYAMH / QISWNSGSIGYADSNK / VGHGGGYFDY gave nd, nd, nd.
The variant GFTFDDYAMH / WISWNSGSIGYADSVK / VHRGGGYFDY gave 5.29, nd, nd.
The variant GFTWDDYQMH / IISWNSGSIGYADSVK / VGRGGGYFDY gave 5.51, nd, nd.
The variant GCTFDDYAMH / AISWNSGSIGYADSVK / VGRGGGYFFY gave nd, 4.46, nd.
The variant GFTFDDYAMH / HISWNTLSIGYADSVK / VGRGGGYFDY gave 5.41, nd, nd.
The variant GFTFDDLAMH / LISWNSGSIGYYDSVK / VGRGGGYFDY gave nd, nd, nd.
The variant GFTFDDYAMH / RISWNSGSIGYADSVK / VWRGGGYIDY gave nd, nd, nd.
The variant GFTFDDYAMH / NISWNSGGIGYADSVK / VGRWGGYFDY gave 4.30, nd, nd.
The variant GFTFDDYAMH / DISWRSGSIGYADSVK / VGRYGGYFDY gave nd, nd, nd.
The variant GFTFDDYAMH / EISWNSGSIGYADSVK / VGRGGGYFDY gave 5.39, 4.97, nd.

Again, the first 5 entries without any signal:

CDR-H1	CDR-H2	CDR-H3	log10 Kd (nM) by replicate
GFTFDDYAMH	LISWNSDSIGDADSVK	VGRGGGYFDY	nd, nd, nd
GFTFDDYAMH	KISWNSGSIGYADYVK	VGRGGGYFDN	nd, nd, nd
GFTFDDYAMH	MIIWNSGSIGYADSYK	VGRGGGYFDY	nd, nd, nd
GFTPDEYAMH	SISWNSGSIGYADSVK	VGRGGGYFDY	nd, nd, nd
GFTFDDYAMH	VISWNSGSIGYADSVK	VDRGGGYSDY	nd, nd, nd

Empty control strains, which show no peptide, gave a signal in 21% of pairings with library AAYL51; the median was 4.54 and 95% of these signals were weaker than 3.26. No background was subtracted.